Source: PubChem BioAssay AID540253 (National Center for Advancing Translational Sciences (NCATS), 2011)
The entries are a selection whose mix differs from that of the whole data set. Some tests of the compounds listed are not included; inactive here does not mean inactive elsewhere. Records with an inconclusive call do not appear. Calls of active or inactive are those of the source. The call rests on the fitted dose curve.

Biological target: Snurportin-1 (Homo sapiens) + GTP-binding nuclear protein Ran (Homo sapiens) + Importin subunit beta-1 (Homo sapiens) (UniProt O95149+P62826+Q14974)
Assay: qHTS Assay for Inhibitors of RanGTP induced Rango (Ran-regulated importin-beta cargo) - Importin beta complex dissociation; further: % of control where 0% means no effect; nearly all actives have a fitted effect of over 45% in size
Conditions: Biochemical FRET Rango-importin beta; at 46.1 µM (top of the series)

SMILES | activity change, negative = inhibition
COc1cc(C(=O)NCC2(N(C)C)CCCCC2)c([N+](=O)[O-])cc1OC | inactive: -0.313%
CN(C)C1(CNC(=O)c2ccc(Br)cc2)CCCCC1 | inactive: 0.37%
O=C(NCC1(N2CCCCC2)CCCCC1)c1cccc(Cl)c1 | inactive: -14.6%
COc1cccc(C(=O)NCC2(N3CCCCC3)CCCCC2)c1 | inactive: 6.57%
COc1ccc(Cl)cc1C(=O)NCC1(N(C)C)CCCCC1 | inactive: -3.31%
O=C(OC1CN2CCC1CC2)C(CO)(c1ccccc1)c1ccccc1 (stereo not given) | inactive: -3.73%
CC(C)Oc1ccc(C(=O)NCC2(N(C)C)CCCCC2)cc1 | inactive: 1.01%
O=C(OCCN1CCCC1)C(O)(c1ccccc1)c1ccccc1 | inactive: 8.8%
CN(C)c1cccc(C(=O)NCC2(N(C)C)CCCCC2)c1 | inactive: -19%
COc1ccc(Br)c(C(=O)NCC2(N3CCCCC3)CCCCC2)c1 | inactive: -20%
CN1[C@@H]2CC[C@H]1CC(OC(=O)C(O)(c1ccccc1)c1ccccc1)C2 (stereo not given in full) | inactive: 4.48%
O=C(NCC1(N2CCCCC2)CCCCC1)c1cc([N+](=O)[O-])ccc1Cl | inactive: -5.11%
Cc1ccc(C(=O)NCC2(N3CCCCC3)CCCCC2)cc1 | inactive: 15.2%
CCN(CC)CC(C)C(C)OC(=O)C(O)(c1ccccc1)c1ccccc1 (stereo not given) | inactive: 12.5%
COc1cc(SC)ccc1C(=O)NCC1(N(C)C)CCCCC1 | inactive: 2.5%
CC(C)N1C(=O)CC2(CCN(CCOC(=O)C(O)(c3ccccc3)c3ccccc3)CC2)C1=O | inactive: 5.69%
Cc1ccccc1C(=O)NCC1(N2CCCCC2)CCCCC1 | inactive: 20.2%
CN(C)C1CCCC1OC(=O)C(O)(c1ccccc1)c1ccccc1 (stereo not given) | inactive: -7.41%
CN(C)c1ccc(C(=O)NCC2(N(C)C)CCCCC2)cc1 | inactive: -4.29%
COc1ccc(C(=O)NCC2(N(C)C)CCCCC2)cc1 | inactive: -7.16%
Cc1cc(C(=O)NCC2(N3CCCCC3)CCCCC2)ccc1[N+](=O)[O-] | inactive: -11.3%
CCN1CCCC(OC(=O)C2(O)c3ccccc3C=Cc3ccccc32)C1 (stereo not given) | inactive: 3.96%
O=C(NCC1(N2CCCCC2)CCCCC1)c1cccc(Br)c1 | inactive: -1.83%
C=CCN1CCN(CCOC(=O)C(O)(c2ccccc2)c2ccccc2)CC1 | inactive: 0.0986%
O=C(NCC1(N2CCCCC2)CCCCC1)c1cc(F)c(F)cc1Cl | inactive: -2.03%
